# Biological target: HCV NS3-4A serine protease (full-length NS3-4A protein) (Hepatitis C virus genotype 1a (isolate 1) (HCV), UniProt P26664)
# By UniProt entry, the sequences of proteins in these tests, tags left out. Where a name states a change or a piece, a line headed by the entry shows the natural chain unless it says otherwise.
# UniProt P26664: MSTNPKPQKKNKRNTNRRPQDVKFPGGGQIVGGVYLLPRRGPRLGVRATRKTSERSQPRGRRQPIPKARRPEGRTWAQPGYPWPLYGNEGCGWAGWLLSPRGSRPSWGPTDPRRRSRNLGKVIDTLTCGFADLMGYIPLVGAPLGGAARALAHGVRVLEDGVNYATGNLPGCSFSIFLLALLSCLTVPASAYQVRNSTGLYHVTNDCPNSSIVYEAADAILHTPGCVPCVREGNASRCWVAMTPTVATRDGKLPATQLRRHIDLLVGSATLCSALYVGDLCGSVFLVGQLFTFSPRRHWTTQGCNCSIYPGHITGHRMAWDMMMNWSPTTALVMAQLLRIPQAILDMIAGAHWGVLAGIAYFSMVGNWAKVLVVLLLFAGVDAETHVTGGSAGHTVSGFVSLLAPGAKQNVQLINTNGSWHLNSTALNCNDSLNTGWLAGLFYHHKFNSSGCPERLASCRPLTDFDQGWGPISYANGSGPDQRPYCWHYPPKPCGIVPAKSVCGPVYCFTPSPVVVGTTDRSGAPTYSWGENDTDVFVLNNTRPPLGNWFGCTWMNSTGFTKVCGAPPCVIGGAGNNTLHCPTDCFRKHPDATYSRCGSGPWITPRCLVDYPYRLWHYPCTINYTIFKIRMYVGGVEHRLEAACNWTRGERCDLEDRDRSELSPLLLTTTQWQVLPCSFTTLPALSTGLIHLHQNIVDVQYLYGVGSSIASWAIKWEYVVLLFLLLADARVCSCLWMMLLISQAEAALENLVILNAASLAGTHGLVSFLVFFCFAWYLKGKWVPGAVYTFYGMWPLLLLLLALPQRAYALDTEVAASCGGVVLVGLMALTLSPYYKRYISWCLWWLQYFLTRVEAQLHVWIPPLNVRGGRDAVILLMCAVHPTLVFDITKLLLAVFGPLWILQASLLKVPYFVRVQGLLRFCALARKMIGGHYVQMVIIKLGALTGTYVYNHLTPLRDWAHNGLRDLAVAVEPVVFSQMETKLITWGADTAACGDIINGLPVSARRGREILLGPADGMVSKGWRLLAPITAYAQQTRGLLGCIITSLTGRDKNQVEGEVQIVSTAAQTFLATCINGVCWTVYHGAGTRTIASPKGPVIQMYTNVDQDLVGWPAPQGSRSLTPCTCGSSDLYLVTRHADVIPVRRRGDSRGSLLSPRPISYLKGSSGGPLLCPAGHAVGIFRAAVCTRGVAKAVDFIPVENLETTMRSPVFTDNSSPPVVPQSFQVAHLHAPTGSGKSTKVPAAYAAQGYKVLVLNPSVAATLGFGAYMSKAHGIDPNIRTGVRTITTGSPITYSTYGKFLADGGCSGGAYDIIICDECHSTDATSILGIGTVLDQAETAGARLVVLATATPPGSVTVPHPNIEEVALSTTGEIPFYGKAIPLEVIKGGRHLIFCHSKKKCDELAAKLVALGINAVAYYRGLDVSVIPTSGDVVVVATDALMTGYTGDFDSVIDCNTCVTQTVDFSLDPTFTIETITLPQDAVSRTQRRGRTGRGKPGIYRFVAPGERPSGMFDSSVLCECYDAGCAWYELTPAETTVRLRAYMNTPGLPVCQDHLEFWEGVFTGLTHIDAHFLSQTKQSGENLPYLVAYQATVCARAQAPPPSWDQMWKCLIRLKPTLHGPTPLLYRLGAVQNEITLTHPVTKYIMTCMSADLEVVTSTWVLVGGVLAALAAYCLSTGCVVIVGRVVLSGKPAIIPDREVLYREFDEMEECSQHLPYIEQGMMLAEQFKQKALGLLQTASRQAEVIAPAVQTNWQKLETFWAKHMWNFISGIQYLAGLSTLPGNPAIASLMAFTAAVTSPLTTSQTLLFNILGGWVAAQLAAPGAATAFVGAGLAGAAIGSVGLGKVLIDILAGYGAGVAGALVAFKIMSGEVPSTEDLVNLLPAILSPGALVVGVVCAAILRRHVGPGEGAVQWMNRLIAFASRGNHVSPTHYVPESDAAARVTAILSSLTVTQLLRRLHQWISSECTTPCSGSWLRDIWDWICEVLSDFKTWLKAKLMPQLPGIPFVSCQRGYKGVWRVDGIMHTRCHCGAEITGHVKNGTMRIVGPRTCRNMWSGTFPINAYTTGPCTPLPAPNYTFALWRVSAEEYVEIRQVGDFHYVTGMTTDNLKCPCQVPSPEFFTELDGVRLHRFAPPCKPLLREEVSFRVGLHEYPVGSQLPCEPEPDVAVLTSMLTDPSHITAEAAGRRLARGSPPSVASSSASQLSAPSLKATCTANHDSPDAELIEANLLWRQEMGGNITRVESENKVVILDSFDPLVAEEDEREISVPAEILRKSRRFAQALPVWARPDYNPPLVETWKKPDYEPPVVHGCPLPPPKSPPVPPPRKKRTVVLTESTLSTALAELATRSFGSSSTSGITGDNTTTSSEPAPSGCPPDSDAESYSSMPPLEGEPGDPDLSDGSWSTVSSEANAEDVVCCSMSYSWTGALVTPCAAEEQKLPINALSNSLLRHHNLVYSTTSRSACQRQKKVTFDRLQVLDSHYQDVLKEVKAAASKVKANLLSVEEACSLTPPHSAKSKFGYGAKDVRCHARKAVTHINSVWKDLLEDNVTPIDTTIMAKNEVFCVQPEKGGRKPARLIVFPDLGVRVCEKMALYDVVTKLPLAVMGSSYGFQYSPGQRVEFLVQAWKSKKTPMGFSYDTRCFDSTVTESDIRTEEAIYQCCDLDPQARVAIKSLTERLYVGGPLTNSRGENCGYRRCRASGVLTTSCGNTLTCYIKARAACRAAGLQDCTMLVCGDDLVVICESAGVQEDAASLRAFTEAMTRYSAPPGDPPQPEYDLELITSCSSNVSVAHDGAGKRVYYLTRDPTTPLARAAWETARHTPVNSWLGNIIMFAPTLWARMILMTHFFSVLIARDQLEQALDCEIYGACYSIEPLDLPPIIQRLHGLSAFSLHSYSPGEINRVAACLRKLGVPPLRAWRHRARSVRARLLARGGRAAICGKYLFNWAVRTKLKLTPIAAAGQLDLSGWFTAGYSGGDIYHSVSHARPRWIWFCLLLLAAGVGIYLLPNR
# Test: HCV NS3-4A protease assay
# Type: biochemical, HCV genotype 1a
# Conditions: strain HCV-1, fluorogenic peptide substrate, read-out: Protease assay Ex. 12 IC50
# Procedure: The inhibitory activity of certain compounds of Table A against HCV NS3-4A serine protease is determined in a homogenous assay using the full-length NS3-4A protein (genotype 1a, strain HCV-1) and a commercially available internally-quenched fluorogenic peptide substrate as described by Taliani, M., et al. 1996 Anal. Biochem. 240:60-67, which is incorporated by reference in its entirety.
row,Structure (SMILES),IC50
1,"C=C[C@@H]1C[C@]1(NC(=O)[C@@H]1C[C@@]2(CN1C(=O)[C@@H](NC(=O)[C@@H](NC(=O)[C@@H]1CCCCN1C(C)C)C1CCCCC1)C(C)(C)C)C(C)(C)C21CCC1)C(=O)NS(=O)(=O)N(C)c1ccccc1 [Compound 52, (5R,8S)-7-[(2S)-2-{[(2S)-2-cyclohexyl-2-({[(2S)-1-isopropylpiperidin-2-yl]carbonyl}amino)acetyl]amino}-3,3-dimethylbutanoyl]-10,10-dimethyl-N-[(1R,2S)-1-({[methyl(phenyl)amino]sulfonyl}carbamoyl)-2-vinylcyclopropyl]-7-azadispiro[3.0.4.1]decane-8-carboxamide]",2.5 nM
2,"C=C[C@@H]1C[C@]1(NC(=O)[C@@H]1C[C@@]2(CN1C(=O)[C@@H](NC(=O)[C@@H](NC(=O)c1cnccn1)C1CCCCC1)C(C)(C)C)C(C)(C)C21CCC1)C(=O)NS(=O)(=O)N(C)CCCl [Compound 168, (5R,8S)-N-[(1R,2S)-1-({[(2-chloroethyl)(methyl)amino]sulfonyl}carbamoyl)-2-vinylcyclopropyl]-7-[(2S)-2-({(2S)-2-cyclohexyl-2-[(pyrazin-2-ylcarbonyl)amino]acetyl}amino)-3,3-dimethylbutanoyl]-10,10-dimethyl-7-azadispiro[3.0.4.1]decane-8-carboxamide]",30 nM
3,"C=C[C@@H]1C[C@]1(NC(=O)[C@@H]1C[C@@]2(CN1C(=O)[C@@H](NC(=O)[C@@H](NC(=O)[C@@H]1CCCCN1C(C)C)C1CCCCC1)C(C)(C)C)C(C)(C)C21CCC1)C(=O)NS(=O)(=O)N(CCOC)C1CC1 [Compound 54, (5R,8S)-7-[(2S)-2-{[(2S)-2-cyclohexyl-2-({[(2S)-1-isopropylpiperidin-2-yl]carbonyl}amino)acetyl]amino}-3,3-dimethylbutanoyl]-N-[(1R,2S)-1-({[cyclopropyl(2-methoxyethyl)amino]sulfonyl}carbamoyl)-2-vinylcyclopropyl]-10,10-dimethyl-7-azadispiro[3.0.4.1]decane-8-carboxamide]",2.5 nM
4,"C=C[C@@H]1C[C@]1(NC(=O)[C@@H]1C[C@@]2(CN1C(=O)[C@@H](NC(=O)[C@@H](NC(=O)[C@@H]1CCCN1CC)C1CCCCC1)C(C)(C)C)C(C)(C)C21CCC1)C(=O)NS(=O)(=O)N(C)CC [Compound 101, (5R,8S)-7-[(2S)-2-{[(2S)-2-cyclohexyl-2-({[(2S)-1-ethylpyrrolidin-2-yl]carbonyl}amino)acetyl]amino}-3,3-dimethylbutanoyl]-N-[(1R,2S)-1-({[ethyl(methyl)amino]sulfonyl}carbamoyl)-2-vinylcyclopropyl]-10,10-dimethyl-7-azadispiro[3.0.4.1]decane-8-carboxamide]",2.5 nM
5,"C=C[C@@H]1C[C@]1(NC(=O)[C@@H]1C[C@@]2(CN1C(=O)[C@@H](NC(=O)[C@@H](NC(=O)[C@@H]1CCCN1CC)C1CCCCC1)C(C)(C)C)C(C)(C)C21CCC1)C(=O)NS(=O)(=O)N(C)C(C)C [Compound 109, (5R,8S)-7-[(2S)-2-{[(2S)-2-cyclohexyl-2-({[(2S)-1-ethylpyrrolidin-2-yl]carbonyl}amino)acetyl]amino}-3,3-dimethylbutanoyl]-N-[(1R,2S)-1-({[isopropyl(methyl)amino]sulfonyl}carbamoyl)-2-vinylcyclopropyl]-10,10-dimethyl-7-azadispiro[3.0.4.1]decane-8-carboxamide]",2.5 nM
6,"C=C[C@@H]1C[C@]1(NC(=O)[C@@H]1C[C@@]2(CN1C(=O)[C@@H](NC(=O)[C@@H](NC(=O)[C@@H]1CCN1C(C)C)C1CCCCC1)C(C)(C)C)C(C)(C)C21CCC1)C(=O)NS(=O)(=O)N1CCCC1 [Compound 17, (5R,8S)-7-[(2S)-2-{[(2S)-2-cyclohexyl-2-({[(2S)-1-isopropylazetidin-2-yl]carbonyl}amino)acetyl]amino}-3,3-dimethylbutanoyl]-10,10-dimethyl-N-{(1R,2S)-1-[(pyrrolidin-1-ylsulfonyl)carbamoyl]-2-vinylcyclopropyl}-7-azadispiro[3.0.4.1]decane-8 carboxamide]",2.5 nM
7,"[2H]C([2H])([2H])C([2H])(N1CCC[C@H]1C(=O)NC(C(=O)N[C@H](C(=O)N1C[C@]2(C[C@H]1C(=O)N[C@]1(C(=O)NS(=O)(=O)N3CCCC3)C[C@H]1C=C)C(C)(C)C21CCC1)C(C)(C)C)C1CCCCC1)C([2H])([2H])[2H] (stereo partly drawn) [Compound 140, (5R,8S)-7-[(2S)-2-{[(2S)-2-cyclohexyl-2-({[(2S)-1-d7-isopropylpyrrolidin-2-yl]carbonyl}amino)acetyl]amino}-3,3-dimethylbutanoyl]-10,10-dimethyl-N-{(1R,2S)-1-[(pyrrolidin-1-ylsulfonyl)carbamoyl]-2-vinylcyclopropyl}-7-azadispiro[3.0.4.1]decane-8-carboxamide-d7]",2.5 nM
8,"C=C[C@@H]1C[C@]1(NC(=O)[C@@H]1C[C@@]2(CN1C(=O)[C@@H](NC(=O)[C@@H](NC(=O)[C@@H]1CCCCN1C)C1CCCCC1)C(C)(C)C)C(C)(C)C21CCC1)C(=O)NS(=O)(=O)N1CCCC1 [Compound 82, (5R,8S)-7-[(2S)-2-{[(2S)-2-cyclohexyl-2-({[(2S)-1-methylpiperidin-2-yl]carbonyl}amino)acetyl]amino}-3,3-dimethylbutanoyl]-10,10-dimethyl-N-{(1R,2S)-1-[(pyrrolidin-1-ylsulfonyl)carbamoyl]-2-vinylcyclopropyl}-7-azadispiro[3.0.4.1]decane-8-carboxamide]",2.5 nM
9,"C=C[C@@H]1C[C@]1(NC(=O)[C@@H]1C[C@@]2(CN1C(=O)[C@@H](NC(=O)[C@@H](NC(=O)[C@@H]1CCCCN1C(C)C)C1CCCCC1)C(C)(C)C)C(C)(C)C21CCC1)C(=O)NS(=O)(=O)NC1CC1 [Compound 172, (5R,8S)-7-[(2S)-2-{[(2S)-2-cyclohexyl-2-({[(2S)-1-isopropylpiperidin-2-yl]carbonyl}amino)acetyl]amino}-3,3-dimethylbutanoyl]-N-[(1R,2S)-1-{[(cyclopropylamino)sulfonyl]carbamoyl}-2-vinylcyclopropyl]-10,10-dimethyl-7-azadispiro[3.0.4.1]decane-8-carboxamide]",2.5 nM
10,"C=C[C@@H]1C[C@]1(NC(=O)[C@@H]1C[C@@]2(CN1C(=O)[C@@H](NC(=O)[C@@H](NC(=O)[C@@H]1CCCCN1C(C)C)C1CCCCC1)C(C)(C)C)C(C)(C)C21CCC1)C(=O)NS(=O)(=O)N(C)CCCl [Compound 171, (5R,8S)-N-[(1R,2S)-1-({[(2-chloroethyl)(methyl)amino]sulfonyl}carbamoyl)-2-vinylcyclopropyl]-7-[(2S)-2-{[(2S)-2-cyclohexyl-2-({[(2S)-1-isopropylpiperidin-2-yl]carbonyl}amino)acetyl]amino}-3,3-dimethylbutanoyl]-10,10-dimethyl-7-azadispiro[3.0.4.1]decane-8-carboxamide]",1 nM
11,"C=C[C@@H]1C[C@]1(NC(=O)[C@@H]1C[C@@]2(CN1C(=O)[C@@H](NC(=O)[C@@H](NC(=O)[C@@H]1CCCCN1C(C)C)C1CCCC1)C(C)(C)C)C(C)(C)C21CCC1)C(=O)NS(=O)(=O)N(CC)CC [Compound 79, (5R,8S)-7-[(2S)-2-{[(2S)-2-cyclopentyl-2-({[(2S)-1-isopropylpiperidin-2-yl]carbonyl}amino)acetyl]amino}-3,3-dimethylbutanoyl]-N-[(1R,2S)-1-{[(diethylamino)sulfonyl]carbamoyl}-2-vinylcyclopropyl]-10,10-dimethyl-7-azadispiro[3.0.4.1]decane-8-carboxamide]",2.5 nM
12,"CC[C@@H]1C[C@]1(NC(=O)[C@@H]1C[C@@]2(CN1C(=O)[C@@H](NC(=O)[C@@H](NC(=O)[C@@H]1CCCN1CC)C1CCCCC1)C(C)(C)C)C(C)(C)C21CCC1)C(=O)NS(=O)(=O)N(CC)CC [Compound 100, (5R,8S)-7-[(2S)-2-{[(2S)-2-cyclohexyl-2-({[(2S)-1-ethylpyrrolidin-2-yl]carbonyl}amino)acetyl]amino}-3,3-dimethylbutanoyl]-N-[(1R,2R)-1-{[(diethylamino)sulfonyl]carbamoyl}-2-ethylcyclopropyl]-10,10-dimethyl-7-azadispiro[3.0.4.1]decane-8-carboxamide]",10 nM
13,"C=C[C@@H]1C[C@]1(NC(=O)[C@@H]1C[C@@]2(CN1C(=O)[C@@H](NC(=O)[C@@H](NC(=O)[C@@H]1CCCCN1C(C)C)C1CCCCC1)C1CCCC1)C(C)(C)C21CCC1)C(=O)NS(=O)(=O)N(CC)CC [Compound 80, (5R,8S)-7-[(2S)-2-{[(2S)-2-cyclohexyl-2-({[(2S)-1-isopropylpiperidin-2-yl]carbonyl}amino)acetyl]amino}-2-cyclopentylacetyl]-N-[(1R,2S)-1-{[(diethylamino)sulfonyl]carbamoyl}-2-vinylcyclopropyl]-10,10-dimethyl-7-azadispiro[3.0.4.1]decane-8-carboxamide]",2 nM
14,"C=C[C@@H]1C[C@]1(NC(=O)[C@@H]1C[C@@]2(CN1C(=O)[C@@H](NC(=O)[C@@H](NC(=O)[C@@H]1CCCN1C1CCCC1)C(C)(C)C)C(C)(C)C)C(C)(C)C21CCC1)C(=O)NS(=O)(=O)N1CCCC1 [Compound 27, (5R,8S)-7-[(2S)-2-{[(2S)-2-({[(2S)-1-cyclopentylpyrrolidin-2-yl]carbonyl}amino)-3,3-dimethylbutanoyl]amino}-3,3-dimethylbutanoyl]-10,10-dimethyl-N-{(1R,2S)-1-[(pyrrolidin-1-ylsulfonyl)carbamoyl]-2-vinylcyclopropyl}-7-azadispiro[3.0.4.1]decane-8-carboxamide]",10 nM
